Results from patent US20260382731A1, “BCL-2/BCL-XL PROTEIN DEGRADER AND USE THEREOF” (published 2026).

Sequences of proteins named here, by UniProt entry; tags and fusion partners are left off.
UniProt Q07817, whole entry: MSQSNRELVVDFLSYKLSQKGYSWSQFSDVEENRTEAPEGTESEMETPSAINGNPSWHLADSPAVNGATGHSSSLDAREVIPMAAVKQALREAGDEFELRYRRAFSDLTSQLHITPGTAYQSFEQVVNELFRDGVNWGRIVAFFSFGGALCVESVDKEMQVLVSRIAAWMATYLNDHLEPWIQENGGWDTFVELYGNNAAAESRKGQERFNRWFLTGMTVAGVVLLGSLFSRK

Tests used:
[1] = target: BCL-XL (Homo sapiens, UniProt Q07817); assay: Immunoblotting: BCL-XL protein degradation; conditions: read-out: MDA-MB-231 degradation DC50, MDA-MB-231 cells
From the text: Cells were collected and lysed in a lysis buffer (Cat. No. BP-115DG, Boston Bio Products, Ashland, MA, USA) containing protease and phosphatase inhibitor cocktails (Cat. No. PPC1010, Sigma-Aldrich, St. Louis, MO, USA). An equal amount of protein lysates was separated on precasted 4-20% Tris-glycine gels (Mini-PROTEAN TGX, Cat. No. 456-1094, Bio-Rad, Hercules, CA, USA). Thereafter, the proteins were transferred to PVDF membranes (Cat. No. LC2002, MilliporeSigma, Billerica, MA, USA). The membranes were blocked with 5% w/v nonfat dry milk in TBS+Tween-20 (0.1% v/v) and then probed with primary antibodies overnight at 4 °C. Next day, the membranes were washed and incubated with appropriate horseradish peroxidase (HRP)-conjugated secondary antibodies. Primary antibodies against BCL-XL (Cat. No. 2762) and Pactin (Cat. No. 4970) and the secondary HRP-linked antibody (Cat. No. 7074) were purchased from Cell Signaling Technology (Danvers, MA, USA). The signal was detected using the ECL substrate (Cat. No. WBKLS0500, MilliporeSigma, Billerica, MA, USA) and captured on the ChemiDoc MP Imaging System (Bio-Rad, Hercules, CA, USA). The band intensities were calculated on the ImageJ software and normalized to equal loading control β-actin.

[2] = system: MOLT-4 cells; assay: Cell viability assay, MOLT-4 (CellTiter-Glo, 72 h); conditions: read-out: MOLT4 Cell viability IC50
[3] = system: human platelets; assay: Platelet viability test (CellTiter-Glo, 72 h); conditions: read-out: Human platelet IC50
Experimental: Human platelet-rich Plasma (PRP) was purchased from Milestone® Biotechnology Limited. PRPS are used for experiments immediately after arrival. Transfer PRP to a 50-mL polypropylene EP tube containing 5 mL citrate buffer (cat. no. sc-214744, Santa Cruz Biotechnology). To avoid clotting, The final concentration of prostaglandin E1 (PGE1, cat. no. sc-201223A, Santa Cruz Biotechnology) and adenosine diphosphonase triphosphate (cat. no. A6410-200UN, 2 units/mL, respectively) were added to the EP tube. Sigma-Aldrich). Slightly shake and mix the liquid in the EP tube, centrifuge it at 1200 g for 10 minutes, and separate the platelets. HEPES buffer benchtop solution (10 mM HEPES, 135 mM NaCl, 2.8 mM KCl, 1 mM MgCl2, 2 mM CaCl2), 10 mm Hepes, 135 mm NaCl, 2.8 mm KCL, 1 mm MgCl2, 2 mm CaCl2)) was prepared with 2 mL of prostaglandin E1 and 2 units/mL of adenosine bisphosphonase triphosphate. 12 mM NaHCO3, 0.4 mM NaH2PO4, 0.25% BSA and 5.5 mM glucose, pH 7.4; cat. no. Cat. No. Cat. #:25-02580, Tiandz) continuously and gently clean the platelet precipitates after centrifugation. After washing, platelets were slowly reinserted to HEPES buffer table solution containing 1 μM of prostaglandin E1 and 2 units/mL of adenosine bisphosphonase triphosphate. Platelets were counted by Vi-cell XR (Backman) cell counter. Platelet activity tests were performed: platelets were resuscitated into a HEPES buffer solution containing 1 µM of prostaglandin E1 and 2 units/mL of adenosine bisphosphonase triphosphate and 10% FBS, counted, and inoculated into 96-well plates with 5×10^5 platelets per well. Different concentrations of the compound to be detected (starting at 10 μM, diluted 3 times) were added to 96-well plates and incubated in the cell incubator for 72 h. 72 h after administration, platelet activity was detected by CellTiter-Glo™ luminescence assay.

DC50 [1]	IC50 [2]	SMILES	IC50 [3]
18 nM	13 nM	CCn1c(C)c(C(=O)NCCN(C)C)c(-c2cc(F)cc(N3CCN(c4ccc(NS(=O)(=O)c5ccc(N[C@H](CCN6CCN(C(=O)CCCCCC(=O)N[C@H](C(=O)N7C[C@H](O)C[C@H]7C(=O)N[C@@H](C)c7ccc(-c8scnc8C)cc7)C(C)(C)C)CC6)CSc6ccccc6)c(S(=O)(=O)C(F)(F)F)c5)cc4)CC3)c2)c1-c1ccc(Cl)cc1	42 nM
7 nM	45 nM	CCn1c(C)c(C(=O)N2C[C@@H](O)[C@@H](O)C2)c(-c2cc(F)cc(N3CCN(c4ccc(NS(=O)(=O)c5ccc(N[C@H](CCN6CCN(C(=O)CCCCCC(=O)N[C@H](C(=O)N7C[C@H](O)C[C@H]7C(=O)N[C@@H](C)c7ccc(-c8scnc8C)cc7)C(C)(C)C)CC6)CSc6ccccc6)c(S(=O)(=O)C(F)(F)F)c5)cc4)CC3)c2)c1-c1ccc(F)cc1	3900 nM
22 nM	15 nM	CCn1c(C)c(S(C)(=O)=O)c(-c2cc(F)cc(N3CCN(c4ccc(NS(=O)(=O)c5ccc(N[C@H](CCN6CC[C@H](NC(=O)CCCCCC(=O)N[C@H](C(=O)N7C[C@H](O)C[C@H]7C(=O)N[C@@H](C)c7ccc(-c8scnc8C)cc7)C(C)(C)C)C6)CSc6ccccc6)c(S(=O)(=O)C(F)(F)F)c5)cc4)CC3)c2)c1-c1ccc(F)cc1	548 nM
4 nM	14 nM	CCn1c(C)c(C(=O)NCCN(C)C)c(-c2cc(F)cc(N3CCN(c4ccc(NS(=O)(=O)c5ccc(N[C@H](CCN6CCN(C(=O)CCCCCC(=O)N[C@H](C(=O)N7C[C@H](O)C[C@H]7C(=O)N[C@@H](C)c7ccc(-c8scnc8C)cc7)C(C)(C)C)CC6)CSc6ccccc6)c(S(=O)(=O)C(F)(F)F)c5)cc4)CC3)c2)c1-c1ccc(F)cc1	78 nM
19 nM	23 nM	CCn1c(C)c(S(C)(=O)=O)c(-c2cc(F)cc(N3CCN(c4ccc(NS(=O)(=O)c5ccc(N[C@H](CCN6CCN(C(=O)CCCCCC(=O)N[C@H](C(=O)N7C[C@H](O)C[C@H]7C(=O)N[C@@H](C)c7ccc(-c8scnc8C)cc7)C(C)(C)C)CC6)CSc6ccccc6)c(S(=O)(=O)C(F)(F)F)c5)cc4)CC3)c2)c1-c1ccc(Cl)cc1	128 nM
2 nM	11 nM	CCn1c(C)c(S(=O)(=O)N2CCC(S(C)(=O)=O)C2)c(-c2cc(F)cc(N3CCN(c4ccc(NS(=O)(=O)c5ccc(N[C@H](CCN6CCN(C(=O)CCCCCC(=O)N[C@H](C(=O)N7C[C@H](O)C[C@H]7C(=O)N[C@@H](C)c7ccc(-c8scnc8C)cc7)C(C)(C)C)CC6)CSc6ccccc6)c(S(=O)(=O)C(F)(F)F)c5)cc4)CC3)c2)c1-c1ccc(F)cc1 (stereo partly shown)	31 nM
6 nM	23 nM	CCn1c(C)c(C(=O)N2CCC(NS(C)(=O)=O)C2)c(-c2cc(F)cc(N3CCN(c4ccc(NS(=O)(=O)c5ccc(N[C@H](CCN6CCN(C(=O)CCCCCC(=O)N[C@H](C(=O)N7C[C@H](O)C[C@H]7C(=O)N[C@@H](C)c7ccc(-c8scnc8C)cc7)C(C)(C)C)CC6)CSc6ccccc6)c(S(=O)(=O)C(F)(F)F)c5)cc4)CC3)c2)c1-c1ccc(F)cc1 (stereo partly shown)	7420 nM
14 nM	15 nM	CCn1c(C)c(C(=O)N2CCC(C)(O)C2)c(-c2cc(F)cc(N3CCN(c4ccc(NS(=O)(=O)c5ccc(N[C@H](CCN6CCN(C(=O)CCCCCC(=O)N[C@H](C(=O)N7C[C@H](O)C[C@H]7C(=O)N[C@@H](C)c7ccc(-c8scnc8C)cc7)C(C)(C)C)CC6)CSc6ccccc6)c(S(=O)(=O)C(F)(F)F)c5)cc4)CC3)c2)c1-c1ccc(F)cc1 (stereo partly shown)	26900 nM
32 nM	15 nM	CCn1c(C)c(S(C)(=O)=O)c(-c2cc(F)cc(N3CCN(c4ccc(NS(=O)(=O)c5ccc(N[C@H](CCN6CCN(C(=O)C7CCN(CC(=O)N[C@H](C(=O)N8C[C@H](O)C[C@H]8C(=O)N[C@@H](C)c8ccc(-c9scnc9C)cc8)C(C)(C)C)CC7)CC6)CSc6ccccc6)c(S(=O)(=O)C(F)(F)F)c5)cc4)CC3)c2)c1-c1ccc(F)cc1	232 nM
3 nM	11 nM	Cc1ncsc1-c1ccc([C@H](C)NC(=O)[C@@H]2C[C@@H](O)CN2C(=O)[C@@H](NC(=O)CCCCCC(=O)N2CCN(CC[C@H](CSc3ccccc3)Nc3ccc(S(=O)(=O)Nc4ccc(N5CCN(c6cc(F)cc(-c7c(C(=O)N8CCOCC8)c(C)n(C(C)C)c7-c7ccc(Cl)cc7)c6)CC5)cc4)cc3S(=O)(=O)C(F)(F)F)CC2)C(C)(C)C)cc1	98 nM
3 nM	9.8 nM	CCn1c(C)c(C(=O)NCC2COCCO2)c(-c2cc(F)cc(N3CCN(c4ccc(NS(=O)(=O)c5ccc(N[C@H](CCN6CCN(CCCCCCC(=O)N[C@H](C(=O)N7C[C@H](O)C[C@H]7C(=O)N[C@@H](C)c7ccc(-c8scnc8C)cc7)C(C)(C)C)CC6)CSc6ccccc6)c(S(=O)(=O)C(F)(F)F)c5)cc4)CC3)c2)c1-c1ccc(F)cc1 (stereo partly shown)	184 nM
28 nM	12 nM	CCn1c(C)c(S(=O)(=O)N2CC3COCC3C2)c(-c2cc(F)cc(N3CCN(c4ccc(NS(=O)(=O)c5ccc(N[C@H](CCN6CCN(C(=O)CCCCCC(=O)N[C@H](C(=O)N7C[C@H](O)C[C@H]7C(=O)N[C@@H](C)c7ccc(-c8scnc8C)cc7)C(C)(C)C)CC6)CSc6ccccc6)c(S(=O)(=O)C(F)(F)F)c5)cc4)CC3)c2)c1-c1ccc(F)cc1 (stereo partly shown)	400 nM
26 nM	10 nM	CCn1c(C)c(C(=O)N2CC[C@@H](NC(C)=O)C2)c(-c2cc(F)cc(N3CCN(c4ccc(NS(=O)(=O)c5ccc(N[C@H](CCN6CCN(C(=O)CCCCCC(=O)N[C@H](C(=O)N7C[C@H](O)C[C@H]7C(=O)N[C@@H](C)c7ccc(-c8scnc8C)cc7)C(C)(C)C)CC6)CSc6ccccc6)c(S(=O)(=O)C(F)(F)F)c5)cc4)CC3)c2)c1-c1ccc(F)cc1	680 nM
1 nM	13 nM	CCn1c(C)c(S(C)(=O)=O)c(-c2cc(F)cc(N3CCN(c4ccc(NS(=O)(=O)c5ccc(N[C@H](CCN6CCN(C(=O)CCCCCC(=O)N[C@H](C(=O)N7C[C@H](O)C[C@H]7C(=O)N[C@@H](C)c7ccc(-c8scnc8C)cc7)C(C)(C)C)CC6)CSc6ccccc6)c(S(=O)(=O)C(F)(F)F)c5)cc4)CC3)c2)c1-c1ccc(F)cc1 (single isomer, unassigned)	–
84 nM	9 nM	Cc1ncsc1-c1ccc([C@H](C)NC(=O)[C@@H]2C[C@@H](O)CN2C(=O)[C@@H](NC(=O)CCCCCC(=O)N2CCN(CC[C@H](CSc3ccccc3)Nc3ccc(S(=O)(=O)Nc4ccc(N5CCN(c6cc(F)cc(-c7c(C(=O)N8CC[C@H](O)C8)c(C)n(C(C)C)c7-c7ccc(Cl)cc7)c6)CC5)cc4)cc3S(=O)(=O)C(F)(F)F)CC2)C(C)(C)C)cc1	–
2 nM	120 nM	CCn1c(C)c(S(C)(=N)=O)c(-c2cc(F)cc(N3CCN(c4ccc(NS(=O)(=O)c5ccc(N[C@H](CCN6CCN(C(=O)CCCCCC(=O)N[C@H](C(=O)N7C[C@H](O)C[C@H]7C(=O)N[C@@H](C)c7ccc(-c8scnc8C)cc7)C(C)(C)C)CC6)CSc6ccccc6)c(S(=O)(=O)C(F)(F)F)c5)cc4)CC3)c2)c1-c1ccc(F)cc1 (stereo partly shown)	–
5 nM	104 nM	Cc1ncsc1-c1ccc([C@H](C)NC(=O)[C@@H]2C[C@@H](O)CN2C(=O)[C@@H](NC(=O)CCCCCC(=O)N2CCN(CC[C@H](CSc3ccccc3)Nc3ccc(S(=O)(=O)Nc4ccc(N5CCN(c6cc(F)cc(-c7c(S(C)(=O)=O)c(C)n(C)c7-c7ccc(F)cc7)c6)CC5)cc4)cc3S(=O)(=O)C(F)(F)F)CC2)C(C)(C)C)cc1	–
190 nM	51 nM	CCn1c(C)c(S(C)(=O)=O)c(-c2cc(F)cc(N3CCN(c4ccc(NS(=O)(=O)c5ccc(N[C@H](CCN6CCN(C(=O)OCCCCC(=O)N[C@H](C(=O)N7C[C@H](O)C[C@H]7C(=O)N[C@@H](C)c7ccc(-c8scnc8C)cc7)C(C)(C)C)CC6)CSc6ccccc6)c(S(=O)(=O)C(F)(F)F)c5)cc4)CC3)c2)c1-c1ccc(F)cc1	–
